Laboratory results: patent US9192667B2, “Method of treating cancer by administering CSF-1R antibodies and a TLR9 agonist” (Hoffmann-La Roche Inc., priority 2013, dated 2015)

How the values were obtained:
M2 macrophages = experiment: Inhibition of human M2 macrophage differentiation and survival; assay type: cell-based
Protocol: (§1) Human monocytes were isolated from peripheral blood using the RosetteSep™ Human Monocyte Enrichment Cocktail (StemCell Tech.—Cat. No. 15028). Enriched monocyte populations were seeded into 96 well microtiterplates (2.5×10^4 cells/well) in 100 μl RPMI 1640 (Gibco—Cat. No. 31870) supplemented with 10% FCS (GIBCO—Cat. No. 011-090014M), 4 mM L-glutamine (GIBCO—Cat. No. 25030) and 1× PenStrep (Roche Cat. No. 1 074 440) at 37° C. and 5% CO2 in a humidified atmosphere. When 100 ng/ml huCSF-1 was added for 6 days to the medium, a clear differentiation into adherent, M2 macrophages with elongated morphology could be observed. When 100 ng/ml huGM-CSF was added to the medium for 6 days, a clear differentiation into adherent, M1 macrophages with round morphology could be observed. This differentiation was associated with the expression of certain markers such as CD 163 for M2 macrophages and CD80 or high MHC class II for M1 macrophages as assessed by flow cytometry. […] Pellets were resuspended in 1 ml staining buffer and cells counted in a Neubauer chamber. […] The Alexa 647 label was conjugated to the antibody by using the Zenon Alexa 647 mouse IgG labeling kit (Invitrogen Cat. No. Z25008) After a 1-hour incubation on ice cells were washed twice with staining buffer, resuspended and measured at a FACS Canto II. […]

M1 macrophages = experiment: Inhibition of human M1 macrophage differentiation and survival; assay type: cell-based
Protocol: as §1

[1] = antibody treatment 7 days, CellTiterGlo

Question: For “hMab 2F11-e7: humanized version of Mab 2F11; heavy chain variable domain SEQ ID NO: 39, light chain variable domain SEQ ID NO: 40; anti-human CSF-1R dimerization inhibitor”, which “M2 macrophage differentiation” value (M2 macrophages; 100 ng/ml huCSF-1, CD163 expression, flow cytometry) is on record?
Answer: could be inhibited

Question: And the “M2 macrophage survival” value (M2 macrophages; [1])?
Answer: is affected

Question: And the “M1 macrophage differentiation” value (M1 macrophages; 100 ng/ml huGM-CSF, flow cytometry)?
Answer: Exclusively M2 macrophage differentiation

Question: What about the “M1 macrophage survival” value (M1 macrophages; [1]) of the same substance?
Answer: but not M1
